# In patent US8936941B2, “Compositions useful for cancer detection and treatment, a cancer stem cell model, and methods of production and use thereof” (priority 2008, dated 2015):
# System: PICSCs
# Assay: Growth and survival of PICSCs after drug treatment
# Format: cell-based, mouse
# Settings: 100 μM drug, 48 hours
# Method: The PICSCs cells were treated with 100 μM drug (suprapharmacological dose) for 48 hours, and their growth and survival were evaluated. […] Moreover, the in vitro testing strategies allows for a mechanistic study of such compounds.
substance,measurement,value
Erbitux: standard chemotherapeutic drug Erbitux (ERX),growth and survival of PICSCs,no significant effect
